Source: publication PMC12102759 (Protein Science : A Publication of the Protein Society, 2025)

Chains of the proteins cited; added tags and fusions are not shown. Residues count along the entry.
UniProt Q9Y490, 309-401: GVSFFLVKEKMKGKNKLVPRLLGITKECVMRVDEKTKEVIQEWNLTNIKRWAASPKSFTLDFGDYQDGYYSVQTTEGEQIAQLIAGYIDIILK

Target: TLN1 PTB (Homo sapiens, UniProt Q9Y490)
Format: binding

Substance | DMS-derived PSSM value of the single-substitution variant | also measured
FPTDERSWVYSPLHYS T3R (FPRDERSWVYSPLHYS) | 0.02199 | 
FPTDERSWVYSPLHYS T3S (FPSDERSWVYSPLHYS) | 0.03707 | 
FPTDERSWVYSPLHYS T3T | 0.0268 | 
FPTDERSWVYSPLHYS T3V (FPVDERSWVYSPLHYS) | 0.009255 | 
FPTDERSWVYSPLHYS T3W (FPWDERSWVYSPLHYS) | 0.08976 | 
FPTDERSWVYSPLHYS T3Y (FPYDERSWVYSPLHYS) | 0.1508 | 
FPTDERSWVYSPLHYS V9A (FPTDERSWAYSPLHYS) | 0.006908 | 
FPTDERSWVYSPLHYS V9D (FPTDERSWDYSPLHYS) | 0.02997 | 
FPTDERSWVYSPLHYS V9E (FPTDERSWEYSPLHYS) | 0.05692 | 
FPTDERSWVYSPLHYS V9F (FPTDERSWFYSPLHYS) | 0.008665 | 
FPTDERSWVYSPLHYS V9G (FPTDERSWGYSPLHYS) | 0.01134 | 
FPTDERSWVYSPLHYS V9H (FPTDERSWHYSPLHYS) | 0.01572 | 
FPTDERSWVYSPLHYS V9I (FPTDERSWIYSPLHYS) | 0.003533 | 
FPTDERSWVYSPLHYS V9K (FPTDERSWKYSPLHYS) | 0.04952 | 
FPTDERSWVYSPLHYS V9L (FPTDERSWLYSPLHYS) | 0.03511 | 
FPTDERSWVYSPLHYS V9M (FPTDERSWMYSPLHYS) | 0.02699 | 
FPTDERSWVYSPLHYS V9N (FPTDERSWNYSPLHYS) | 0.6095 | 
FPTDERSWVYSPLHYS V9P (FPTDERSWPYSPLHYS) | 0 | 
FPTDERSWVYSPLHYS V9Q (FPTDERSWQYSPLHYS) | 0.01572 | 
FPTDERSWVYSPLHYS V9R (FPTDERSWRYSPLHYS) | 0.02163 | 
FPTDERSWVYSPLHYS V9S (FPTDERSWSYSPLHYS) | 0.02044 | 

Substance | DMS-derived PSSM value of the single-substitution variant | also measured
FPTDERSWVYSPLHYS V9T (FPTDERSWTYSPLHYS) | 0.009005 | 
FPTDERSWVYSPLHYS V9V | 0.007982 | 
FPTDERSWVYSPLHYS V9W (FPTDERSWWYSPLHYS) | 0.05341 | 
FPTDERSWVYSPLHYS V9Y (FPTDERSWYYSPLHYS) | 0.01766 | 
FPTDERSWVYSPLHYS W8A (FPTDERSAVYSPLHYS) | 0.0437 | 
FPTDERSWVYSPLHYS W8D (FPTDERSDVYSPLHYS) | 0 | 
FPTDERSWVYSPLHYS W8E (FPTDERSEVYSPLHYS) | 0 | 
FPTDERSWVYSPLHYS W8F (FPTDERSFVYSPLHYS) | 0.2983 | 
FPTDERSWVYSPLHYS W8G (FPTDERSGVYSPLHYS) | 0 | 
FPTDERSWVYSPLHYS W8H (FPTDERSHVYSPLHYS) | 0 | 
FPTDERSWVYSPLHYS W8I (FPTDERSIVYSPLHYS) | 0 | 
FPTDERSWVYSPLHYS W8K (FPTDERSKVYSPLHYS) | 0 | 
FPTDERSWVYSPLHYS W8L (FPTDERSLVYSPLHYS) | 0 | 
FPTDERSWVYSPLHYS W8M (FPTDERSMVYSPLHYS) | 0 | 
FPTDERSWVYSPLHYS W8N (FPTDERSNVYSPLHYS) | 0 | 
FPTDERSWVYSPLHYS W8P (FPTDERSPVYSPLHYS) | 0.0437 | 
FPTDERSWVYSPLHYS W8Q (FPTDERSQVYSPLHYS) | 0.0707 | 
FPTDERSWVYSPLHYS W8R (FPTDERSRVYSPLHYS) | 0 | 
FPTDERSWVYSPLHYS W8S (FPTDERSSVYSPLHYS) | 0 | 
FPTDERSWVYSPLHYS W8T (FPTDERSTVYSPLHYS) | 0 | 
FPTDERSWVYSPLHYS W8V (FPTDERSVVYSPLHYS) | 0 | 

Substance | DMS-derived PSSM value of the single-substitution variant | also measured
FPTDERSWVYSPLHYS W8W | 0.5435 | 
FPTDERSWVYSPLHYS W8Y (FPTDERSYVYSPLHYS) | 0 | 
FPTDERSWVYSPLHYS Y10A (FPTDERSWVASPLHYS) | 0.0258 | 
FPTDERSWVYSPLHYS Y10D (FPTDERSWVDSPLHYS) | 0.0443 | 
FPTDERSWVYSPLHYS Y10E (FPTDERSWVESPLHYS) | 0.001155 | 
FPTDERSWVYSPLHYS Y10F (FPTDERSWVFSPLHYS) | 0.05635 | 
FPTDERSWVYSPLHYS Y10G (FPTDERSWVGSPLHYS) | 0.00629 | 
FPTDERSWVYSPLHYS Y10H (FPTDERSWVHSPLHYS) | 0.005897 | 
FPTDERSWVYSPLHYS Y10I (FPTDERSWVISPLHYS) | 0.04645 | 
FPTDERSWVYSPLHYS Y10K (FPTDERSWVKSPLHYS) | 0.09285 | 
FPTDERSWVYSPLHYS Y10L (FPTDERSWVLSPLHYS) | 0.0305 | 
FPTDERSWVYSPLHYS Y10M (FPTDERSWVMSPLHYS) | 0.02723 | 
FPTDERSWVYSPLHYS Y10N (FPTDERSWVNSPLHYS) | 0.01841 | 
FPTDERSWVYSPLHYS Y10P (FPTDERSWVPSPLHYS) | 0.03355 | 
FPTDERSWVYSPLHYS Y10Q (FPTDERSWVQSPLHYS) | 0.06416 | 
FPTDERSWVYSPLHYS Y10R (FPTDERSWVRSPLHYS) | 0.07605 | 
FPTDERSWVYSPLHYS Y10S (FPTDERSWVSSPLHYS) | 0.2908 | 
FPTDERSWVYSPLHYS Y10T (FPTDERSWVTSPLHYS) | 0.09994 | 
FPTDERSWVYSPLHYS Y10V (FPTDERSWVVSPLHYS) | 0.06161 | 
FPTDERSWVYSPLHYS Y10W (FPTDERSWVWSPLHYS) | 0.007525 | 
FPTDERSWVYSPLHYS Y10Y | 0.01108 | 

Substance | DMS-derived PSSM value of the single-substitution variant | also measured
FPTDERSWVYSPLHYS Y15A (FPTDERSWVYSPLHAS) | 0.07808 | 
FPTDERSWVYSPLHYS Y15D (FPTDERSWVYSPLHDS) | 0.1507 | 
FPTDERSWVYSPLHYS Y15E (FPTDERSWVYSPLHES) | 0.04133 | 
FPTDERSWVYSPLHYS Y15F (FPTDERSWVYSPLHFS) | 0.1806 | 
FPTDERSWVYSPLHYS Y15G (FPTDERSWVYSPLHGS) | 0.06795 | 
FPTDERSWVYSPLHYS Y15H (FPTDERSWVYSPLHHS) | 0.06268 | 
FPTDERSWVYSPLHYS Y15I (FPTDERSWVYSPLHIS) | 0.02212 | 
FPTDERSWVYSPLHYS Y15K (FPTDERSWVYSPLHKS) | 0.1066 | 
FPTDERSWVYSPLHYS Y15L (FPTDERSWVYSPLHLS) | 0.004513 | 
FPTDERSWVYSPLHYS Y15M (FPTDERSWVYSPLHMS) | 0.01681 | 
FPTDERSWVYSPLHYS Y15N (FPTDERSWVYSPLHNS) | 0.006192 | 
FPTDERSWVYSPLHYS Y15P (FPTDERSWVYSPLHPS) | 0.01992 | 
FPTDERSWVYSPLHYS Y15Q (FPTDERSWVYSPLHQS) | 0.01747 | 
FPTDERSWVYSPLHYS Y15R (FPTDERSWVYSPLHRS) | 0.002018 | 
FPTDERSWVYSPLHYS Y15S (FPTDERSWVYSPLHSS) | 0.04773 | 
FPTDERSWVYSPLHYS Y15T (FPTDERSWVYSPLHTS) | 0.02913 | 
FPTDERSWVYSPLHYS Y15V (FPTDERSWVYSPLHVS) | 0.02215 | 
FPTDERSWVYSPLHYS Y15W (FPTDERSWVYSPLHWS) | 0.1085 | 
FPTDERSWVYSPLHYS Y15Y | 0.01552 | 
LADLIATDSKLYIPLE (Ac-LADLIATDSKLYIPLE-NH2) [TPTE2_F97A] |  | NGS_counts log2_total: 1.58
TDERSWVYSPLHYS(averaged) D2A (TAERSWVYSPLHYS) |  | DMS-derived PSSM value, averaged over the two overlapping peptides: 0.1865
